Test results as given in article PMC4301837, “Aldosterone synthase inhibition: cardiorenal protection in animal disease models and translation of hormonal effects to human subjects” (Journal of Translational Medicine, 2014).

Assays:
[1] = system: dTG rats overexpressing human renin and angiotensinogen; experiment: animal or person; details: Rattus norvegicus, feed or water, read-out: EC50 for normalizing plasma aldosterone concentration
[2] = system: Ang-II-stimulated aldosterone synthesis; experiment: animal or person; details: Rattus norvegicus, read-out: half-maximal effective plasma LCI699 concentration (EC50), Ang-II-stimulated aldosterone
[3] = in vivo; details: male, Sprague-Dawley, rat, plasma, po

N#Cc1ccc([C@H]2CCc3cncn32)c(F)c1 [LCI699]
EC50 [1]: 50 nM | EC50 [2]: 127 nM | Tmax [3]: 0.3 to 2.4 h
